Sequences of proteins named here, by UniProt entry; tags and fusion partners are left off. Residues count along the entry.
UniProt Q9NYK1, 27-1049 limits assumed: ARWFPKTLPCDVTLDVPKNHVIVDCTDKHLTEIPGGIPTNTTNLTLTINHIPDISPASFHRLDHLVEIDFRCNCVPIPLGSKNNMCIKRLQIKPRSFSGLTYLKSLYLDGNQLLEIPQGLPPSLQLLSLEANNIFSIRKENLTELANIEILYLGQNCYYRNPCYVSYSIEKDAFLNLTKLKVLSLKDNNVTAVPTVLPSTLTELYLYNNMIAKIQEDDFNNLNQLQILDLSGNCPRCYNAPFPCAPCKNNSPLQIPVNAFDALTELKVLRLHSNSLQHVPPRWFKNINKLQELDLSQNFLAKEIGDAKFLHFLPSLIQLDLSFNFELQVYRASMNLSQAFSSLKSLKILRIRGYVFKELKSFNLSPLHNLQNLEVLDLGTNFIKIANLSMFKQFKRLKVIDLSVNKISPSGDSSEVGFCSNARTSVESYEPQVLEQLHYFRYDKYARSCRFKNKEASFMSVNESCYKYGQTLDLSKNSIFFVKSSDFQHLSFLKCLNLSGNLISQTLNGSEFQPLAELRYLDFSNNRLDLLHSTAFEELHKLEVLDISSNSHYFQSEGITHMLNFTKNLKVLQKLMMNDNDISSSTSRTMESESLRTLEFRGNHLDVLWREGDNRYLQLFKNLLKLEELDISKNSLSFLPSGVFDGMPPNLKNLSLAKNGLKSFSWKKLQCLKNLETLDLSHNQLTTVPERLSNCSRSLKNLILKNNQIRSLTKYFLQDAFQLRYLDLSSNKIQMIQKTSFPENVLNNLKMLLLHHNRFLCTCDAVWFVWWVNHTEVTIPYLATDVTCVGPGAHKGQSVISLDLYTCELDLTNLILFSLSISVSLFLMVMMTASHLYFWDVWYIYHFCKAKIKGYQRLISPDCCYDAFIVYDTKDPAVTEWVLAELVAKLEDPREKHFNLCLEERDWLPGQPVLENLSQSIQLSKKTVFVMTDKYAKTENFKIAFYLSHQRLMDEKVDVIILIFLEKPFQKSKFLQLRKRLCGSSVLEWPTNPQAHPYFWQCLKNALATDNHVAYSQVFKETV
UniProt Q9NR97, 27-1041 limits assumed: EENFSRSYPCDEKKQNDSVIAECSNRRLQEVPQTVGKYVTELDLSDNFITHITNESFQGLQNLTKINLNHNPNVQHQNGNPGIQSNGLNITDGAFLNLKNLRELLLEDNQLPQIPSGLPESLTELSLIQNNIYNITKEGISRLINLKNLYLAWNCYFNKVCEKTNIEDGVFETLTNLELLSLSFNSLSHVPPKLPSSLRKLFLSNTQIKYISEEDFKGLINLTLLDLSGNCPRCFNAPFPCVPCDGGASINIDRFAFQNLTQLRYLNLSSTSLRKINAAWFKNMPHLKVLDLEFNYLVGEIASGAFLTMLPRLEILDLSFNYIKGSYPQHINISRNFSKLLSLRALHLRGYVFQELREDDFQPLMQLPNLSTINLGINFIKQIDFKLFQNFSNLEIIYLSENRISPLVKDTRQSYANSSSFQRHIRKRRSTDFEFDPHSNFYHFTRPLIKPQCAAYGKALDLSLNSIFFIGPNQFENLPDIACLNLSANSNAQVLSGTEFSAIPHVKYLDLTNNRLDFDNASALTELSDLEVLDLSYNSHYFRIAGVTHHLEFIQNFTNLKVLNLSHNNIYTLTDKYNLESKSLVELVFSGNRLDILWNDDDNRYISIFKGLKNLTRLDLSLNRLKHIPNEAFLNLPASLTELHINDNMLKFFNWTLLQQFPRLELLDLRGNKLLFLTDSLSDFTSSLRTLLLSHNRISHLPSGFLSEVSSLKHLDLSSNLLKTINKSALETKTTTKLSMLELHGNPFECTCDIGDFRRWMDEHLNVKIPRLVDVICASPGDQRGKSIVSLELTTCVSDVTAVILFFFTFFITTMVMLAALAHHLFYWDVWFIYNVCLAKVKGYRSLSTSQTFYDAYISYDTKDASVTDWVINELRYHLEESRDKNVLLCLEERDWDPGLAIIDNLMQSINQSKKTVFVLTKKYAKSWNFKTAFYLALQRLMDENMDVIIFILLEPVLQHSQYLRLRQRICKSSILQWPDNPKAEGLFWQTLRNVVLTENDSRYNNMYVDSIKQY
UniProt Q96P20, whole entry: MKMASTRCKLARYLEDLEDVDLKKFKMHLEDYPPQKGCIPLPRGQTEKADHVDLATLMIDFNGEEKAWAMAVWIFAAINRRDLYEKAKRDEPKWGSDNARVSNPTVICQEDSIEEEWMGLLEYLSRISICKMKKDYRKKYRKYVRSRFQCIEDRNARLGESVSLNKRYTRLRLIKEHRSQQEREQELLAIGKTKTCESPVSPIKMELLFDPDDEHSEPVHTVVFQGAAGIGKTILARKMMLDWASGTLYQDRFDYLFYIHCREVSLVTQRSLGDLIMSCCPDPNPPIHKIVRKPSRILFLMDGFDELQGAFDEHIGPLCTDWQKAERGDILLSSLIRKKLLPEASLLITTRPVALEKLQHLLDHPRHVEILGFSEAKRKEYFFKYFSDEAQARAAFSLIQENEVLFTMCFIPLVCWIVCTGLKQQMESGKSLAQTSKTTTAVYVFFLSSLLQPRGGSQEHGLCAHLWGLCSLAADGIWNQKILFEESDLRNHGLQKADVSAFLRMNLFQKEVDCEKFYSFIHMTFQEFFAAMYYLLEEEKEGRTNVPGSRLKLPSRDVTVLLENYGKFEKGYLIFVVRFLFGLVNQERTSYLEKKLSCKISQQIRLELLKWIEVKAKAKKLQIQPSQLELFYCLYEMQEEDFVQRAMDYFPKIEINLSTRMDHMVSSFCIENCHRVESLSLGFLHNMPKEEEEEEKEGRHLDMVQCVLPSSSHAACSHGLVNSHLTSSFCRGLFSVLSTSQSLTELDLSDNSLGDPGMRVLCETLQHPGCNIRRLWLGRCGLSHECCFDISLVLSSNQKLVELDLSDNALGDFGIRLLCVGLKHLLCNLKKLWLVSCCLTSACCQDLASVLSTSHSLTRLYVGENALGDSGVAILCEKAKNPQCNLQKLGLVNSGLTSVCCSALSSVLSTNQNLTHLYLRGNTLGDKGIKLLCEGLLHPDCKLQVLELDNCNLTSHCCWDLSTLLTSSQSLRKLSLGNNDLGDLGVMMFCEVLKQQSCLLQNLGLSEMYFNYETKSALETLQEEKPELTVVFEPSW

In patent publication US20220056043A1, “NITROGEN-CONTAINING FUSED CYCLIC COMPOUND, PREPARATION METHOD THEREFOR AND USE THEREOF” (SICHUAN KELUN-BIOTECH BIOPHARMACEUTICAL CO., LTD., priority 2019, published 2022):

How the values were obtained:
hTLR7 = hTLR7 (Homo sapiens, UniProt Q9NYK1); test: Agonistic effect on hTLR7, HEK-hTLR7-NF-κB-Luciferase reporter cells; conditions: read-out: hTLR7 EC50, 16 hours
hTLR8 = hTLR8 (Homo sapiens, UniProt Q9NR97); test: Agonistic effect on hTLR8, HEK-Blue hTLR8 cells, alkaline phosphatase secretion; conditions: read-out: hTLR8 EC50, 16 hours
THP1-defNLRP3 cells = test: Agonistic effect on the expression of IL-1β in NLRP3 deficient THP1 cells (THP1-defNLRP3) after PMA-induced differentiation (HTRF); conditions: read-out: hNLRP3 EC50 (μM) (THP-1defNLRP3); IL-1β level, PMA-differentiated NLRP3 deficient THP1 cells, 6 hours; highest test concentration 30 μM
hNLRP3 inflammasome = hNLRP3 inflammasome (Homo sapiens, UniProt Q96P20); test: Agonistic effect on the expression of IL-1β in THP-1 cells after PMA-induced differentiation (HTRF); type: cell-based; conditions: read-out: hNLRP3 EC50 (μM) (THP-1); IL-1β level, PMA-differentiated THP-1 cells, 6 hours
Description: Experimental Example 1: Agonistic Effect of the Compound of the Invention on the Expression of IL-1β in THP-1 Cells after PMA-Induced Differentiation
In this test, a HTRF (homogeneous time-resolved fluorescence) detection method was used to test the effect of the compound of the invention on the level of downstream cytokine IL-1β of NLRP3 to evaluate the agonistic effect of the compound on hNLRP3 inflammasome or hNLRP3 inflammasome pathway at a cellular level.
Reagent: RPMI 1640 (Hyclone); heat-inactivated FBS (fetal bovine serum) (Gibco); PMA (phorbol myristal acetate) (Beyotime)
Kit: IL-1β assay kit (CISIO)
1) THP-1 cells in a logarithmic growth phase were seeded in a T75 culture flask at a density of 5×10^5 cells/well, and cultured in a cell incubator at 37° C., 5% CO2 for 24 hours, and then 1 μM PMA was used to induce THP-1 suspension cells to become adherent macrophages. The medium was RPMI 1640 containing 10% heat-inactivated FBS and 0.05 mM β-mercaptoethanol.
2) The cells were induced and cultured for 24 hours. […]
3) An appropriate amount of 10 mM DMSO solution of the compound to be tested was taken and diluted to a concentration of 2× test concentration with RPMI 1640 medium containing 2% heat-inactivated FBS. […] The supernatant was collected, and the level of IL-1β was measured in accordance with the instructions of the IL-1β detection kit. […]

EC50 (hTLR7): > 100 µM | EC50 (hTLR8): > 100 µM | EC50 (THP1-defNLRP3 cells): > 30 µM | EC50 (hNLRP3 inflammasome): 0.01 µM
Structure (SMILES): Nc1cc(NCC2CCCO2)c2sc(-c3ccn[nH]3)cc2n1 (single isomer, unassigned)
